Laboratory results: patent US8105836B2, “Chemical inhibitors of mismatch repair” (priority 2001, dated 2012)

Tested on: mismatch repair (MMR) in H36 pCAR-OF cells
Assay: H36 pCAR-OF β-galactosidase MMR-sensitive reporter screening assay
Type: cell-based, murine

SMILES: CN(N=O)C(=N)N[N+](=O)[O-]
- generation of β-galactosidase positive cells / MI and shifting of the polynucleotide tract in the pCAR-OF reporter: did not result in MI and/or the shifting of the polynulceotide tract in the pCAR-OF reporter
